# Laboratory results taken from US20220387633A1, “SMART PEPTIDES AND TRANSFORMABLE NANOPARTICLES FOR CANCER IMMUNOTHERAPY” (The Regents of the University of California, priority 2019, published 2022).
# Test system: phosphorylation of Erk, Mek and Raf-1
# Assay: Western blot of MAPK pathway proteins in MCF-7/C6 cells
# Assay type: cell-based, human
# Conditions: 36 h; NPs 50 μM, Herceptin 15 μg/mL
# Protocol: Western blot analysis. MCF-7/C6 cells were treated by different conditions and then collected by centrifugation at 14,000 rpm for 10 min and lysed with a 1% (v/v) Triton X-100 containing lysis buffer (50 mM Tris-HCl, pH 8.0, 150 mM NaCl) with protease inhibitor. Total cellular proteins were estimated using a BCA kit (Applygen). Each sample (50 μg of protein) was subjected to SDS-PAGE and transferred to nitrocellulose membranes. After blocking for 2 h at room temperature with 5% (wt/v) nonfat dry milk in blotto solution (20 mM Tris-HCl, pH 7.5, 150 mM NaCl and 0.1% Tween 20), the membranes were incubated with primary antibody overnight at 4° C. Then the membranes were washed (3×5 min) with TBST solution and incubated with second antibodies for 2 h at room temperature. Signals were visualized by chemiluminescence on a Typhoon Trio Variable Mode Imager. Band density was calculated using NIH Image J software.
substance,measurement,value
"Herceptin: positive control in Western blot, anti-HER2 antibody","phosphorylation of Erk, Mek and Raf-1",strongly inhibit
